Literature values in patent US20190026423A1, “Cycle Closure Estimation of Relative Binding Affinities and Errors” (Schrödinger, LLC, priority 2013, published 2019).
Like-named read-outs stand apart in the source and are kept apart here.

Molecular target: CDK2-cyclin A receptor (Homo sapiens, UniProt P24941)
Details: experimental binding free energy
[1] = 6 ligands with crystal structures
[2] = ligands without crystal structures

Row | Compound | ΔG(EXP) [1] | ΔG(EXP) [2]
1 | c1ccc(Nc2nc(OCC3CCCCC3)c3nc[nH]c3n2)cc1 [Compound 1h1q] | -8.18 kcal/mol | 
2 | CNS(=O)(=O)c1ccc(Nc2nc(OCC3CCCCC3)c3nc[nH]c3n2)cc1 [Compound 28] |  | -11.11 kcal/mol
3 | C[S+]([O-])c1ccc(Nc2nc(OCC3CCCCC3)c3nc[nH]c3n2)cc1 (centres unmarked) [Compound 31] |  | -9.54 kcal/mol
4 | CS(=O)(=O)c1ccc(Nc2nc(OCC3CCCCC3)c3nc[nH]c3n2)cc1 [Compound 1h1s] | -11.25 kcal/mol | 
5 | CS(=O)(=O)c1ccc(Nc2nc(OCC3CCCCC3)c3nc[nH]c3n2)cc1 [Compound 30] |  | -9.81 kcal/mol
